Results: paper PMC10516900

Experiments:
[1] = biological target: cUSP47CD^C97SΔ236-248 (Caenorhabditis elegans); experiment: ITC; ITC200, 25 °C; 500 µM monoubiquitin (1 mM for cUSP47CD^H178F and cUSP47CD^H178A) titrated into ~25–30 µM USP47 protein in the cell; 20 mM HEPES pH 7.4, 100 mM NaCl; one-site model, singlicate dataset
[2] = biological target: cUSP47CD^C97S (Caenorhabditis elegans); experiment: as above

Kd [1]: 2700 nM
stoichiometry N [2]: 1
Substance: ubiquitin (from UniProt P0CG48 1-76) (natural protein)
